Experimental data from patent publication US6444670B2 (Wyeth, priority 1998, dated 2002).

By UniProt entry, the sequences of proteins in these tests, tags left out. Where a name states a change or a piece, a line headed by the entry shows the natural chain unless it says otherwise.
UniProt P18031: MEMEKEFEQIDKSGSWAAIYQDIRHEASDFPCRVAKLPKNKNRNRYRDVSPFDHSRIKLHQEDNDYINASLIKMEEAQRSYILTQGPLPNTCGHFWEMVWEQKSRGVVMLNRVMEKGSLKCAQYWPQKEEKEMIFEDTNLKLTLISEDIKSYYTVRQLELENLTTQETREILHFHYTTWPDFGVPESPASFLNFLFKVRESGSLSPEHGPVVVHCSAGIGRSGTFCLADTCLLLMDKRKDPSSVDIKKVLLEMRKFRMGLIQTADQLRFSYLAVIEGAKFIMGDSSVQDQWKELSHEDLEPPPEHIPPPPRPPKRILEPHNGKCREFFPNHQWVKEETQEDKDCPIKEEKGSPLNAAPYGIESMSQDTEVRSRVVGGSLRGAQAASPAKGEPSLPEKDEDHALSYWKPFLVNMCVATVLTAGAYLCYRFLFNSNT

What was measured:
[1] = biological target: Human recombinant PTP1B (hPTP1B) (Homo sapiens, UniProt P18031); experiment: Inhibition of tri-phosphorylated insulin receptor dodecaphosphopeptide dephosphorylation by hPTP1B; assay type: biochemical
[2] = test system: rat hepatic microsomal PTPases; experiment: Inhibition of tri-phosphorylated insulin receptor dodecaphosphopeptide dephosphorylation by rat hepatic PTPases; settings: 50 μM compound

Phenylarsine oxide
IC50 [1]: 39.7 µM
% Change from Control [2]: −57.06%
